From PMC9945734 (BMC Medicine, 2023)

Tested on: PC-3-KQ cells
Test: 3D spheroid invasion assay and screening of FDA-approved drugs
Conditions: 0.01 μM (first column so headed); secondary screening of 87 hit compounds (Table S1); compared to vehicle control

Gramicidin
Invasion rates (%) of each drug’s multiple concentrations (μM): 99.27%
